Assay outcomes (PubChem)
Nrf2 activator – Nrf2 pathway activation; AREc32 ARE-luciferase reporter (MCF7-derived line), luminescence, 24 h; Potency, µM (top dose mostly 46.1 µM), for inactives: at the highest dose activation, most hits filed as activators; actives 0.31% (n = 410,000); AID 624171; also: potency is read from the fitted curve at half-maximal effect; % of control where 0% means no effect; nearly all actives have a fitted effect of over 65% in size
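Nrf2 activation is followed as ARE-luciferase induction in the AREc32 line after one day of compound treatment; luminescence is read with Steady-Glo.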
ClpP mod – qHTS Assay for Activators of ClpP. actives 1.9% (n = 340,000). purified B. subtilis ClpP, FRET peptide cleavage, 20 min. Potency, µM (titrated, usually from 57.5 µM), without a hit: at the top dose activity change, negative = active. ATP-dependent Clp protease proteolytic subunit (Bacillus subtilis (strain 168)), P80244; active = well fitted falling curve with a large enough effect; inconclusive = small, poorly fitted or top-dose-only effect; inactive = no such curve, though single readings can be large or run the other way; also: potency is read from the fitted curve at half-maximal effect; the source files actives as falling curves though it sought activators and does not explain the sign; nearly all actives have a fitted effect of over 65% in size
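Buffer: 100 mM Tris/HCl pH8, 100 mM KCl, 0.05% low protease BSA, 2.5% glycerol, 0.01% Tween-20. ClpP 10 microg/mL final; 20 min RT; delta FRET normalized to ADEP and DMSO controls.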
A549 tox-1 – counter-screen for Nrf2 inhibitors: cytotoxicity in A549 cells | A549 ARE-Fluc cells, CellTiter-Fluor viability, 18-24 h | actives 0.16% (n = 390,000) | AID 504648 | Potency, µM (series often up to 46 µM), for inactives: at the highest dose activity change, negative = cytotoxicity, hits mostly inhibitors; also: potency is read from the fitted curve at half-maximal effect; % is scaled to controls: 0 for no effect and ±100 for the full control effect
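A549 ARE-Fluc cells in 5% FBS OPTI-MEM, 5000 cells/well, rested 2 h then exposed to compounds in concentration-response for 18-24 h at 37 °C. Viability by CellTiter-Fluor fluorescence (Ex 405/Em 525) after 30 min; luciferase luminescence (BugLite, 15 min, RT) read afterwards.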
Nrf2 inh – Nrf2 pathway inhibition; Potency, µM (series often up to 46 µM), inactives show at the top dose activity change, negative = inhibition, most hits filed as inhibitors; actives 2.1% (n = 360,000); A549 ARE-Fluc reporter, luciferase luminescence, 18-24 h; also: potency is read from the fitted curve at half-maximal effect; % is scaled to controls: 0 for no effect and ±100 for the full control effect; nearly all actives have a fitted effect of over 60% in size
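In this cell-based qHTS, ARE-driven firefly luciferase in A549 cells reports Nrf2 activity; the luminescent signal after BugLite lysis is the measured value, with a prior CellTiter-Fluor read for cell health.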
p53 reactivation – re-activators of mutant p53. H1299 p53-A138V BP100-luciferase reporter, luminescence, 24 h. Potency, µM (series often up to 92.2 µM), for the others: top-dose activity change, positive = activation, actives largely listed as activators. actives 0.063% (n = 320,000); also: potency is read from the fitted curve at half-maximal effect; % of control where 0% means no effect; nearly all actives have a fitted effect of over 45% in size
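H1299 (p53-null), stable ts p53-A138V + BP100-Luc; 1000 cells/well, Opti-MEM/10% FBS; cpd 4 pt, 1:5; 24 h, 37 deg C, 5% CO2; detection reagent 10 min RT; luminescence.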
miR-21 reporter – miR-21 reporter, rising signal | HeLa miR-21 FLuc reporter, luciferase, 48 h | Potency, µM (doses to about 38.3 µM), inactives show at the top dose reporter change, positive = more light | 340,000 tested, under 10 active | AID 2288; active = well fitted rising curve with a large enough effect; inconclusive = small, poorly fitted or top-dose-only effect; inactive = no such curve, though single readings can be large or run the other way;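 note: % of control where 0% means no effect; miR-21 action dims this reporter so a rising signal means less miR-21 action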
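HeLa cells stably expressing CMV-driven firefly luciferase with a downstream miR-21 binding sequence, endogenously expressing miR-21, were treated with titrations (up to about 40uM final) for 48 hours at 37 degree Celsius. Luciferase luminescence was read after lysis.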
FLuc counter 3 – blocks purified firefly luciferase in Nrf2 counterscreen; shares compounds with Nrf2 inh; purified firefly luciferase, luminescence inhibition; Potency, µM (top dose mostly 57.5 µM), for inactives: top-dose activity change, negative = inhibition, most hits filed as inhibitors; actives 4% (n = 1,400); also: potency is read from the fitted curve at half-maximal effect; % is scaled to controls: 0 for no effect and ±100 for the full control effect; nearly all actives have a fitted effect of over 65% in size
A549 tox-2 – toxic to A549 ARE-Fluc cells in Nrf2 counterscreen. shares compounds with Nrf2 inh. A549 ARE-Fluc cells, cytotoxicity counterscreen. Potency, µM (titrated, usually from 46.1 µM), inactives show at the top dose activity change, negative = cytotoxicity, actives largely listed as inhibitors. actives 2% (n = 1,400);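 also: potency is read from the fitted curve at half-maximal effect; cells exposed to compounds for 18 to 24 hours; % is scaled to controls: 0 for no effect and ±100 for the full control effect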
Nrf2 ARE inh – Nrf2 inhibition confirmed, A549 ARE-luciferase; shares compounds with Nrf2 inh; A549 ARE-firefly luciferase reporter, luminescence; Potency, µM (titrated, usually from 46.1 µM), without a hit: top-dose activity change, negative = inhibition, most hits filed as inhibitors; actives 74% (n = 1,400); AID 720524; also: potency is read from the fitted curve at half-maximal effect; % is scaled to controls: 0 for no effect and ±100 for the full control effect; nearly all actives have a fitted effect of over 65% in size
* = called active by the depositor; ? = inconclusive; . = not tested or not shown; ! = a repeat was not active; [ ] = dose if it differs, or a comment. An excerpt weighted towards active compounds, which were near 3.7% of everything screened. Unless noted, calls follow the shape of the dose curve; as a rule, active = well fitted curve in the direction sought with a large enough effect; inconclusive = small, poorly fitted or top-dose-only effect, or another doubt; inactive = no such curve, though single readings can be large; an effect the other way counts as inactive or inconclusive.

mol,Nrf2 activator,ClpP mod,A549 tox-1,Nrf2 inh,p53 reactivation,miR-21 reporter,FLuc counter 3,A549 tox-2,Nrf2 ARE inh
CC(=O)Nc1ccc(S(=O)(=O)N2CC3(C)CC2CC(C)(C)C3)cc1 (stereo not given),0.6%,.,-5.7%,-0.2%,-3.5%,-4.9%,.,.,.
CC1(C)CC2CC(C)(CN2S(=O)(=O)c2ccc(C(=O)Nc3ccc(S(=O)(=O)N4CCOCC4)cc3)cc2)C1 (stereo not given),0.8%,.,?,1.46µM*,-3.3%,20.1%,-0.2%,2.2%,4.11µM*
CC1(C)CC2CC(C)(CN2S(=O)(=O)c2ccc(C(=O)Nc3ccc(Cl)c(S(=O)(=O)N4CCOCC4)c3)cc2)C1 (stereo not given),1.1%,?,-10.8%,5.17µM*,12.2%,?,-1.1%,-11.3%,7.31µM*
CCOC(=O)C(=O)Nc1nc(-c2ccc3c(c2)CCN3C(=O)C2CC2)c(C)s1,0.2%,0.8%,0.7%,8.9%,16.1%,-15.2%,.,.,.
Cc1sc(NC(=O)Cc2ccc3c(c2)OCO3)nc1-c1ccc2c(c1)CCN2C(=O)c1ccc(F)cc1,-1.2%,-10.7%,0.5%,5.17µM*,-5.8%,-8.9%,-7.6%,7.8%,2.59µM*
Cc1ccc2c(c1)c(=O)c(C(=O)c1ccc3c(c1)OCO3)cn2Cc1cccc(F)c1,5.2%,0.9%,-19.7%,?,.,12.1%,.,.,.
CCOc1cc(CNC(=O)c2cc(-c3ccccc3)n[nH]2)cc(OCC)c1OCC,0.6%,1.4%,-0.1%,?,.,-3.0%,.,.,.
COc1ccc(CN(C)Cc2nc(Cc3cccc(F)c3)no2)c2cccnc12,2.5%,.,?,3.26µM*,-1.0%,9.4%,-0.3%,-6.6%,?
COc1cccc(-n2cc(CN(C)Cc3nc(Cc4cccc(F)c4)no3)cn2)c1,0.5%,-2.5%,8.8%,-13.0%,-1.4%,-5.7%,.,.,.
COc1cccc(CNC(=O)CCn2c(=O)c3cccn3c3cccnc32)c1,?,-19.8%,1.2%,1.16µM*!,1.1%,-3.7%,-1.6%,-3.3%,6.8%
CC1CCN(c2c(NCc3ccc(C(=O)N4CCN(C5CCCCC5)CC4)cc3)c(=O)c2=O)CC1,0.0%,1.0%,0.5%,0.3%,-1.5%,-7.9%,.,.,.
CC1CCN(c2c(NCc3ccc(C(=O)N4c5ccccc5CC4C)cc3)c(=O)c2=O)CC1 (stereo not given),2.7%,-0.5%,-18.5%,9.2µM*,-11.3%,-4.4%,-23.8%,-20.5%,2.06µM*
Cc1ccc(-n2nc(C)c(C(=O)NCCCN3CCN(c4ccccc4F)CC3)c2-n2cccc2)cc1,-2.7%,2.0%,?,?,.,-1.5%,.,.,.
COc1ccc(C(=O)N2CCN(c3ccc([N+](=O)[O-])c(NCCc4ccc(OC)c(OC)c4)c3)CC2)cc1,3.0%,1.3%,?,2.91µM*,2.0%,19.4%,1.1%,-24.2%,5.8µM*
COc1ccc(CCNc2cc(N3CCN(C(=O)c4ccccc4F)CC3)ccc2[N+](=O)[O-])cc1OC,1.4%,-1.3%,?,2.06µM*,-1.0%,7.0%,1.0%,-26.8%,6.51µM*
CCOc1ccc(C(=O)Nc2ccc(S(=O)(=O)N(Cc3ccccc3)c3ccccc3)cc2)cc1,-1.1%,?,-10.1%,2.06µM*,.,?,-0.9%,-0.7%,1.64µM*
CCCN(CCC)S(=O)(=O)c1ccc(C(=O)Nc2nnc(-c3cc(OC)cc(OC)c3)o2)cc1,0.0%,0.2%,-2.7%,?,0.3%,2.0%,.,.,.
CC1CCCN(S(=O)(=O)c2ccc(C(=O)Nc3nnc(-c4ccco4)o3)cc2)C1 (stereo not given),3.0%,0.8%,-18.3%,8.2µM*,-6.8%,2.0%,-1.3%,?,.
CCc1nnc(NC(=O)c2ccc(S(=O)(=O)N3CCCC(C)C3)cc2)o1 (stereo not given),-1.2%,-1.0%,-15.8%,?,-10.2%,14.6%,.,.,.
CCN(c1ccccc1)S(=O)(=O)c1ccc(C(=O)Nc2nnc(-c3ccco3)o2)cc1,-2.3%,-2.1%,-22.4%,5.17µM*,-2.5%,?,0.9%,-26.3%,5.17µM*
CCCN(CCC)S(=O)(=O)c1ccc(C(=O)Nc2nnc(-c3cccc(OC)c3)o2)cc1,-1.0%[9.22 µM],1.9%,?,6.51µM*,16.1%,-2.8%,1.7%,?,4.61µM*
CC1(C)COCN1S(=O)(=O)c1ccc(C(=O)Nc2nnc(-c3ccc(Cl)s3)o2)cc1,-0.9%,-3.3%,?,6.31µM*,?,16.2%,-14.7%,?,5.17µM*
CS(=O)(=O)c1ccccc1-c1nnc(NC(=O)c2ccc(S(=O)(=O)N3CCCC3)cc2)o1,-0.7%,-0.8%,1.1%,-4.6%,0.6%,.,.,.,.
O=C(Nc1nnc(-c2ccccc2Cl)o1)c1ccc(S(=O)(=O)N2CCCCCC2)cc1,-2.0%,0.0%,-15.5%,?,27.7%,-1.1%,-9.5%,?,20.6µM*
CC1CCCCN1S(=O)(=O)c1ccc(C(=O)Nc2nnc(-c3ccccc3Cl)o2)cc1 (stereo not given),-0.1%,0.5%,?,5.17µM*,-0.1%,0.2%,-2.4%,?,6.51µM*
COCCCNC(=O)C(=O)NCC(c1ccc2c(c1)OCO2)N1CCOCC1 (stereo not given),1.6%,-3.0%,13.2%,.,.,-0.4%,.,.,.
CC(C)C[C@H]1CNC(=S)N1C[C@H]1CCCN1C[C@H](Cc1ccc(O)cc1)N1C[C@H](CC(C)C)N(CC2CCCCCC2)C1=S,0.0%,-1.5%,.,.,.,.,.,.,.
COc1ccc(C)cc1NC(=O)Cn1c(=O)n(Cc2nc(C)no2)c(=O)c2ccccc21,1.0%,-11.7%,5.5%,?,.,0.1%,.,.,.
Cc1ccc(C)c(N2CCN(S(=O)(=O)c3ccc(-c4cc(C(F)(F)F)on4)s3)CC2)c1,-0.5%,-1.2%,-9.7%,?,.,-2.5%,.,.,.
Cc1ccccc1OCCn1c(C)nc2ccccc21,-0.8%,.,2.6%,8.2µM*,.,12.2%,-15.4%,2.2%,?
